According to patent US20190343860A1 (Saint Louis University, priority 2016, published 2019):

How the values were obtained:
[1] = test system: mitochondria in peripheral sensory afferents (PNSAs); assay: Mitochondrial ATP production in peripheral sensory afferents after in vivo treatment; settings: oxaliplatin 5 days, 10 mg/kg cumulative dose
mA3AR = target: T1, mA3AR (Mus musculus, UniProt Q61618); assay: cAMP assay, inhibition of forskolin-stimulated cAMP in mAR-transfected HEK cells; assay type: cell-based; settings: species m; percentage of maximal effect of 1a, from concentration-effect curves
T1 construct: expressed in transfected cells
T1 sequence (Q61618 1-319): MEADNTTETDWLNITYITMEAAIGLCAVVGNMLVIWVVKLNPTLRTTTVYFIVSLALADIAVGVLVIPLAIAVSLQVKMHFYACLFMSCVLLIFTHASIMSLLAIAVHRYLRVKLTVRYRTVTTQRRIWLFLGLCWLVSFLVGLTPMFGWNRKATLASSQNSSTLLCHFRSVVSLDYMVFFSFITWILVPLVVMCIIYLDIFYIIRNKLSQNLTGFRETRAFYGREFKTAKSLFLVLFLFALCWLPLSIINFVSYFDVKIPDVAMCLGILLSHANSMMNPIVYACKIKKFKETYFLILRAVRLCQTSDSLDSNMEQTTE

SMILES | Mitochondrial function (ATP production) in PNSAs [1] | % efficacy (mA3AR) [%]
O=C1[O][Pt]2([NH][C@@H]3CCCC[C@H]3[NH]2)[O]C1=O [oxaliplatin, reference compound] | reduced ATP production | –
O[C@@H]1[C@H](O)[C@@H]2C[C@@H]2[C@H]1n1cnc2c(NCCc3ccccc3)nc(C#Cc3ccccc3)nc21 [Cmpd 14] | – | 14.3 ± 6.1
